System: P. aeruginosa
Assay: MIC by broth microdilution
Format: cell-based
Settings: 35 °C, 24 h, duplicates
Method: The minimum inhibitory concentrations (MIC) of cationic peptides were determined using the broth microdilution method in a 96-well microtiter plate (Cellstar, Greiner Bio-One, Austria). The inoculum was prepared by suspending overnight grown isolated colonies selected from a Tryptic Soy Agar (TSA) plate in water for injection. The concentration of the inoculum suspension was adjusted to match that of the 0.5 McFarland’s standard (10^8 CFU/mL) and further diluted 150-fold by adding 50 μL of suspension into 7.5 mL of Mueller−Hinton broth to obtain an inoculum of 10^5 to 10^6 CFU/mL. Lyophilized peptide obtained from the manufacturer was dissolved in water and adjusted to a final concentration of 0.5 to 256 μg/mL in twofold serial dilutions. A total of 100 μL of the solution was then mixed with an equal volume of bacterial inoculum prepared before in 96-well plates. The plates were then incubated at 35 °C for 24 h, and the optical density at 600 nm (OD600) was determined using a TECAN microplate reader.

Measured: Minimum inhibitory concentration

CC[C@H](C)[C@H](NC(=O)CN)C(=O)NCC(=O)N[C@@H](C)C(=O)N[C@H](C(=O)N[C@@H](CC(C)C)C(=O)N[C@@H](CCCCN)C(=O)N[C@H](C(=O)N[C@@H](CC(C)C)C(=O)N[C@H](C(=O)N[C@H](C(=O)NCC(=O)N[C@@H](CC(C)C)C(=O)N1CCC[C@H]1C(=O)N[C@@H](C)C(=O)N[C@@H](CC(C)C)C(=O)N[C@H](C(=O)N[C@@H](CO)C(=O)N[C@@H](Cc1c[nH]c2ccccc12)C(=O)N[C@H](C(=O)N[C@@H](CCCCN)C(=O)N[C@@H](CCCNC(=N)N)C(=O)N[C@@H](CCCCN)C(=O)N[C@@H](CCCNC(=N)N)C(=O)N[C@@H](CCC(N)=O)C(=O)N[C@@H](CCC(N)=O)C(N)=O)[C@@H](C)CC)[C@@H](C)CC)[C@@H](C)O)[C@@H](C)O)C(C)C)C(C)C [Melittin]
11.2 µM: strain P. aeruginosa 02, Mueller-Hinton broth | strain P. aeruginosa 04, Mueller-Hinton broth
5.6 µM: strain P. aeruginosa 01 (first line so named, 8th strain of Table S1), Mueller-Hinton broth | strain P. aeruginosa 01 (second line so named, 12th strain of Table S1), Mueller-Hinton broth | strain P. aeruginosa 03, Mueller-Hinton broth | strain P. aeruginosa 05, Mueller-Hinton broth | strain P. aeruginosa 08, Mueller-Hinton broth | strain P. aeruginosa 23155, Mueller-Hinton broth | strain P. aeruginosa 27853, Mueller-Hinton broth
2.8 µM: strain P. aeruginosa 06, Mueller-Hinton broth | strain P. aeruginosa 07, Mueller-Hinton broth | strain P. aeruginosa 09, Mueller-Hinton broth | strain P. aeruginosa 10, Mueller-Hinton broth | strain P. aeruginosa 9027, Mueller-Hinton broth
